This note sets out measurements from EP2768830B1, “APOPTOSIS-INDUCING AGENTS FOR THE TREATMENT OF CANCER AND IMMUNE AND AUTOIMMUNE DISEASES” (AbbVie Inc., priority 2011, dated 2013).

One may read the bioavailability as the share of a dose that reaches the circulation, judged against a reference dose that is usually intravenous. Low readings indicate poor availability, high ones good availability.

The first data set can be described thus: in vivo. The note with it: rat, in vivo, po, 1 mg/kg.
Turning to `COC1(Cn2ncc(-c3ccc(N4CCc5cccc(C(=O)Nc6nc7ccccc7s6)c5C4)nc3C(=O)O)c2C)CCCC(C)(C)C1` (stereo not shown) [Example 157, 6-[8-(1,3-benzothiazol-2-ylcarbamoyl)-3,4-dihydroisoquinolin-2(1H)-yl]-3-{1-[(1-methoxy-3,3-dimethylcyclohexyl)methyl]-5-methyl-1H-pyrazol-4-yl}pyridine-2-carboxylic acid], the bioavailability came to 30%.

In turn, `Cc1c(-c2ccc(N3CCc4cccc(C(=O)Nc5nc6ccccc6s5)c4C3)nc2C(=O)O)cnn1CC1CCCCO1` (stereo not shown) [Example 154, 6-[8-(1,3-benzothiazol-2-ylcarbamoyl)-3,4-dihydroisoquinolin-2(1H)-yl]-3-[5-methyl-1-(tetrahydro-2H-pyran-2-ylmethyl)-1H-pyrazol-4-yl]pyridine-2-carboxylic acid] registered a bioavailability of 22%.

As for `Cc1c(-c2ccc(N3CCc4cccc(C(=O)Nc5nc6ccccc6s5)c4C3)nc2C(=O)O)cccc1N(C)c1ccccc1` [Example 156, 6-[8-(1,3-benzothiazol-2-ylcarbamoyl)-3,4-dihydroisoquinolin-2(1H)-yl]-3-{2-methyl-3-[methyl(phenyl)amino]phenyl}pyridine-2-carboxylic acid], the bioavailability came out at 39%.

Staying with this data set, now noted: rat, plasma, po, 5 mg/kg.
Turning to `O=C(Nc1nc2ccccc2s1)c1cccc2c1CN(c1ccc(-c3cccc(Oc4ccccc4)c3)c(C(=O)O)n1)CC2` [Example 103, 6-[8-(1,3-benzothiazol-2-ylcarbamoyl)-3,4-dihydroisoquinolin-2(1H)-yl]-3-(3-phenoxyphenyl)pyridine-2-carboxylic acid], the bioavailability came to 39%.

For the compound `Cc1c(-c2ccc(N3CCc4cccc(C(=O)Nc5nc6ccccc6s5)c4C3)nc2C(=O)O)cnn1CC1(C)CCCCC1` [Example 82, 6-[8-(1,3-benzothiazol-2-ylcarbamoyl)-3,4-dihydroisoquinolin-2(1H)-yl]-3-{5-methyl-1-[(1-methylcyclohexyl)methyl]-1H-pyrazol-4-yl}pyridine-2-carboxylic acid], the bioavailability worked out at 45%.

Compound `Cc1c(-c2ccc(N3CCc4cccc(C(=O)Nc5nc6ccccc6s5)c4C3)nc2C(=O)O)cc(C#N)n1CC1(N2CCCCC2)CCCCC1` [Example 131, 6-[8-(1,3-benzothiazol-2-ylcarbamoyl)-3,4-dihydroisoquinolin-2(1H)-yl]-3-(5-cyano-2-methyl-1-{[1-(piperidin-1-yl)cyclohexyl]methyl}-1H-pyrrol-3-yl)pyridine-2-carboxylic acid] registered a bioavailability of 11%.

`O=C(Nc1nc2ccccc2s1)c1cccc2c1CN(c1ccc(-c3cnn(Cc4cccc(N5CCCC5)n4)c3)c(C(=O)O)n1)CC2` [Example 22, 6-[8-(1,3-benzothiazol-2-ylcarbamoyl)-3,4-dihydroisoquinolin-2(1H)-yl]-3-(1-{[6-(pyrrolidin-1-yl)pyridin-2-yl]methyl}-1H-pyrazol-4-yl)pyridine-2-carboxylic acid] registered a bioavailability of 27%.

`Cc1c(-c2ccc(N3CCc4cccc(C(=O)Nc5nc6ccccc6s5)c4C3)nc2C(=O)O)cc(C#N)n1Cc1ccccc1` [Example 129, 6-[8-(1,3-benzothiazol-2-ylcarbamoyl)-3,4-dihydroisoquinolin-2(1H)-yl]-3-(1-benzyl-5-cyano-2-methyl-1H-pyrrol-3-yl)pyridine-2-carboxylic acid] came in with a bioavailability of 17%.

Regarding `O=C(Nc1nc2ccccc2s1)c1cccc2c1CN(c1ccc(-c3cnn(Cc4ccccc4Cl)c3)c(C(=O)O)n1)CC2` [Example 25, 6-[8-(1,3-benzothiazol-2-ylcarbamoyl)-3,4-dihydroisoquinolin-2(1H)-yl]-3-[1-(2-chlorobenzyl)-1H-pyrazol-4-yl]pyridine-2-carboxylic acid], the bioavailability was found to be 24%.

Take `COCCC1(Cn2ncc(-c3ccc(N4CCc5cccc(C(=O)Nc6nc7ccccc7s6)c5C4)nc3C(=O)NS(C)(=O)=O)c2C)CCCCCC1` [Example 148, N-(1,3-benzothiazol-2-yl)-2-{5-(1-{[1-(2-methoxyethyl)cycloheptyl]methyl}-5-methyl-1H-pyrazol-4-yl)-6-[(methylsulfonyl)carbamoyl]pyridin-2-yl}-1,2,3,4-tetrahydroisoquinoline-8-carboxamide]: the bioavailability came to 18%.

Compound `COCCCC1(Cn2ncc(-c3ccc(N4CCc5cccc(C(=O)Nc6nc7ccccc7s6)c5C4)nc3C(=O)O)c2C)CCCCCC1` [Example 147, 6-[8-(1,3-benzothiazol-2-ylcarbamoyl)-3,4-dihydroisoquinolin-2(1H)-yl]-3-(1-{[1-(3-methoxypropyl)cycloheptyl]methyl}-5-methyl-1H-pyrazol-4-yl)pyridine-2-carboxylic acid] had a bioavailability of 37%.

Take `COCCC1(Cn2ncc(-c3ccc(N4CCc5cccc(C(=O)Nc6nc7ccccc7s6)c5C4)nc3C(=O)O)c2C)CCCC(C)(C)C1` (stereo not shown) [Example 146, 6-[8-(1,3-benzothiazol-2-ylcarbamoyl)-3,4-dihydroisoquinolin-2(1H)-yl]-3-(1-{[1-(2-methoxyethyl)-3,3-dimethylcyclohexyl]methyl}-5-methyl-1H-pyrazol-4-yl)pyridine-2-carboxylic acid]: the bioavailability came out at 16%.

As for `Cc1c(-c2ccc(N3CCc4cccc(C(=O)Nc5nc6ccccc6s5)c4C3)nc2C(=O)O)cnn1CC1CCCC1` [Example 63, 6-[8-(1,3-benzothiazol-2-ylcarbamoyl)-3,4-dihydroisoquinolin-2(1H)-yl]-3-[1-(cyclopentylmethyl)-5-methyl-1H-pyrazol-4-yl]pyridine-2-carboxylic acid], the bioavailability came to 20%.

As to `COCCC1(Cn2ncc(-c3ccc(N4CCc5cccc(C(=O)Nc6nc7ccccc7s6)c5C4)nc3C(=O)O)c2C)CCCCC1` [Example 90, 6-[8-(1,3-benzothiazol-2-ylcarbamoyl)-3,4-dihydroisoquinolin-2(1H)-yl]-3-(1-{[1-(2-methoxyethyl)cyclohexyl]methyl}-5-methyl-1H-pyrazol-4-yl)pyridine-2-carboxylic acid], the bioavailability was 44%.

Consider `O=C(Nc1nc2ccccc2s1)c1cccc2c1CN(c1ccc(-c3cnn(CC4CCCCC4)c3C3CC3)c(C(=O)O)n1)CC2` [Example 70, 6-[8-(1,3-benzothiazol-2-ylcarbamoyl)-3,4-dihydroisoquinolin-2(1H)-yl]-3-[1-(cyclohexylmethyl)-5-cyclopropyl-1H-pyrazol-4-yl]pyridine-2-carboxylic acid], for which the bioavailability was 21%.

For `Cc1c(-c2ccc(N3CCc4cccc(C(=O)Nc5nc6ccccc6s5)c4C3)nc2C(=O)O)cc(C#N)n1CC1CCCCC1` [Example 130, 6-[8-(1,3-benzothiazol-2-ylcarbamoyl)-3,4-dihydroisoquinolin-2(1H)-yl]-3-[5-cyano-1-(cyclohexylmethyl)-2-methyl-1H-pyrrol-3-yl]pyridine-2-carboxylic acid], the bioavailability amounted to 32%.

As for `Cc1c(OC2CCCCC2)cccc1-c1ccc(N2CCc3cccc(C(=O)Nc4nc5ccccc5s4)c3C2)nc1C(=O)O` [Example 114, 6-[8-(1,3-benzothiazol-2-ylcarbamoyl)-3,4-dihydroisoquinolin-2(1H)-yl]-3-[3-(cyclohexyloxy)-2-methylphenyl]pyridine-2-carboxylic acid], the bioavailability was found to be 38%.

On to `Cc1nn(Cc2ccccc2)c(C)c1-c1ccc(N2CCc3cccc(C(=O)Nc4nc5ccccc5s4)c3C2)nc1C(=O)O` [Example 12, 6-[8-(1,3-benzothiazol-2-ylcarbamoyl)-3,4-dihydroisoquinolin-2(1H)-yl]-3-(1-benzyl-3,5-dimethyl-1H-pyrazol-4-yl)pyridine-2-carboxylic acid], for which the bioavailability amounted to 29%.

Compound `O=C(Nc1nc2ccccc2s1)c1cccc2c1CN(c1ccc(-c3cnn(C4CCc5ccccc54)c3)c(C(=O)O)n1)CC2` (stereo not shown) [Example 37, 6-[8-(1,3-benzothiazol-2-ylcarbamoyl)-3,4-dihydroisoquinolin-2(1H)-yl]-3-[1-(2,3-dihydro-1H-inden-1-yl)-1H-pyrazol-4-yl]pyridine-2-carboxylic acid] showed a bioavailability of 29%.

On to `CC(c1ccccc1)n1cc(-c2ccc(N3CCc4cccc(C(=O)Nc5nc6ccccc6s5)c4C3)nc2C(=O)O)cn1` (stereo not shown) [Example 5, 6-[8-(1,3-benzothiazol-2-ylcarbamoyl)-3,4-dihydroisoquinolin-2(1H)-yl]-3-[1-(1-phenylethyl)-1H-pyrazol-4-yl]pyridine-2-carboxylic acid], for which the bioavailability came out at 19%.

The compound `O=C(Nc1nc2ccccc2s1)c1cccc2c1CN(c1ccc(-c3cccc(OC4CCCCC4)c3F)c(C(=O)O)n1)CC2` [Example 119, 6-[8-(1,3-benzothiazol-2-ylcarbamoyl)-3,4-dihydroisoquinolin-2(1H)-yl]-3-[3-(cyclohexyloxy)-2-fluorophenyl]pyridine-2-carboxylic acid] registered a bioavailability of 54%.

Compound `Cc1c(-c2ccc(N3CCc4cccc(C(=O)Nc5nc6ccccc6s5)c4C3)nc2C(=O)O)cnn1C[C@@H]1C[C@@H]2C=C[C@H]1C2` [Example 91, 6-[8-(1,3-benzothiazol-2-ylcarbamoyl)-3,4-dihydroisoquinolin-2(1H)-yl]-3-{1-[(1R,2R,4R)-bicyclo[2.2.1]hept-5-en-2-ylmethyl]-5-methyl-1H-pyrazol-4-yl}pyridine-2-carboxylic acid] yielded a bioavailability of 16%.

`Cc1c(-c2ccc(N3CCc4cccc(C(=O)Nc5nc6ccccc6s5)c4C3)nc2C(=O)O)cnn1Cc1ccccc1OCC1CCOCC1` [Example 99, 6-[8-(1,3-benzothiazol-2-ylcarbamoyl)-3,4-dihydroisoquinolin-2(1H)-yl]-3-{5-methyl-1-[2-(tetrahydro-2H-pyran-4-ylmethoxy)benzyl]-1H-pyrazol-4-yl}pyridine-2-carboxylic acid] had a bioavailability of 19%.

`COCCC1(Cn2cc(-c3ccc(N4CCc5cccc(C(=O)Nc6nc7ccccc7s6)c5C4)nc3C(=O)O)cn2)CCCCC1` [Example 88, 6-[8-(1,3-benzothiazol-2-ylcarbamoyl)-3,4-dihydroisoquinolin-2(1H)-yl]-3-(1-{[1-(2-methoxyethyl)cyclohexyl]methyl}-1H-pyrazol-4-yl)pyridine-2-carboxylic acid]: the bioavailability worked out at 23%.

With `O=C(Nc1nc2ccccc2s1)c1cccc2c1CN(c1ccc(-c3cccc(Cc4ccccc4)c3)c(C(=O)O)n1)CC2` [Example 106, 6-[8-(1,3-benzothiazol-2-ylcarbamoyl)-3,4-dihydroisoquinolin-2(1H)-yl]-3-(3-benzylphenyl)pyridine-2-carboxylic acid], the bioavailability is 24%.
